Reference: ChEMBL document CHEMBL1123281, “Synthesis and rat lens aldose reductase inhibitory activity of some benzopyran-2-ones” (J Med Chem, 1986)
pIC50: −log10 of the molar value.

Molecular target: Aldo-keto reductase family 1 member B1 (Rattus norvegicus, UniProt P07943)
Experiment: Compound was tested for inhibitory concentration against rat lens aldose reductase (uncompetitive inhibition type)
Summary of the method: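 Crude supernatant from 50 rat lenses homogenized in distilled water, centrifuged 10 000 rpm, 10 min, 0–5 °C. Read-out was NADPH decrease at 340 nm over 5 min in 0.1 M phosphate pH 6.2, 0.104 mM NADPH, 10 mM DL-glyceraldehyde. IC50 came from least-squares log dose–response fits, using ≥4 concentrations ×4 replicates. Inhibition type was read from double-reciprocal plots with 0.0625–1.0 mM substrate.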

O=C1NC(=O)[C@@]2(CCOc3ccc(F)cc32)N1 [SORBINIL]
pIC50: 7.77
